Data: ChEMBL document CHEMBL3621193, “New arylalkanones from Horsfieldia macrobotrys, effective antidiabetic agents concomitantly inhibiting α-glucosidase and free radicals” (Bioorg Med Chem Lett, 2015)

Amino acid sequences for entries named in this document (tags omitted). Residues count along the entry.
UniProt P23739, 1014-1841 limits assumed: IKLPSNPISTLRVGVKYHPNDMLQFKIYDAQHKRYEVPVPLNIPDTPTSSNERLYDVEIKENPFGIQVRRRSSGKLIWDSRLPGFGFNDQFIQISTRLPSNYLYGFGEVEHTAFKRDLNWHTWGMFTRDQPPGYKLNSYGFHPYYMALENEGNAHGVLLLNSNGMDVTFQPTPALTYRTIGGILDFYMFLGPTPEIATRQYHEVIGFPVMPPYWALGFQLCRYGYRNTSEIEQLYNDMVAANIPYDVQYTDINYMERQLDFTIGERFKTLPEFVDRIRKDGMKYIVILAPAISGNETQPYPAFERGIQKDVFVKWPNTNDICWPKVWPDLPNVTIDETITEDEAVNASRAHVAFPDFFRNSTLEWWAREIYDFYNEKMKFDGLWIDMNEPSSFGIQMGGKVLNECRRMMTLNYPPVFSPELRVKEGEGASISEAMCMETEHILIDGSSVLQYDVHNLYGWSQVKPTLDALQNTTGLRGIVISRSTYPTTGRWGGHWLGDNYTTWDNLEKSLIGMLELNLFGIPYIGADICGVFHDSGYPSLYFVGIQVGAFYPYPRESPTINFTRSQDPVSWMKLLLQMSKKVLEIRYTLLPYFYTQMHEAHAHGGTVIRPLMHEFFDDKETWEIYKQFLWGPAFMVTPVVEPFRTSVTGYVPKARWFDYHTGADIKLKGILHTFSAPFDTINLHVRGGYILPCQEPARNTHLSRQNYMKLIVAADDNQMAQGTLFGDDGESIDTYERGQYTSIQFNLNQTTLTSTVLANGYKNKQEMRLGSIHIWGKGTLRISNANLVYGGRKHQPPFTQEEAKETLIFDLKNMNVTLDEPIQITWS
UniProt P23739, 1-1013 limits assumed: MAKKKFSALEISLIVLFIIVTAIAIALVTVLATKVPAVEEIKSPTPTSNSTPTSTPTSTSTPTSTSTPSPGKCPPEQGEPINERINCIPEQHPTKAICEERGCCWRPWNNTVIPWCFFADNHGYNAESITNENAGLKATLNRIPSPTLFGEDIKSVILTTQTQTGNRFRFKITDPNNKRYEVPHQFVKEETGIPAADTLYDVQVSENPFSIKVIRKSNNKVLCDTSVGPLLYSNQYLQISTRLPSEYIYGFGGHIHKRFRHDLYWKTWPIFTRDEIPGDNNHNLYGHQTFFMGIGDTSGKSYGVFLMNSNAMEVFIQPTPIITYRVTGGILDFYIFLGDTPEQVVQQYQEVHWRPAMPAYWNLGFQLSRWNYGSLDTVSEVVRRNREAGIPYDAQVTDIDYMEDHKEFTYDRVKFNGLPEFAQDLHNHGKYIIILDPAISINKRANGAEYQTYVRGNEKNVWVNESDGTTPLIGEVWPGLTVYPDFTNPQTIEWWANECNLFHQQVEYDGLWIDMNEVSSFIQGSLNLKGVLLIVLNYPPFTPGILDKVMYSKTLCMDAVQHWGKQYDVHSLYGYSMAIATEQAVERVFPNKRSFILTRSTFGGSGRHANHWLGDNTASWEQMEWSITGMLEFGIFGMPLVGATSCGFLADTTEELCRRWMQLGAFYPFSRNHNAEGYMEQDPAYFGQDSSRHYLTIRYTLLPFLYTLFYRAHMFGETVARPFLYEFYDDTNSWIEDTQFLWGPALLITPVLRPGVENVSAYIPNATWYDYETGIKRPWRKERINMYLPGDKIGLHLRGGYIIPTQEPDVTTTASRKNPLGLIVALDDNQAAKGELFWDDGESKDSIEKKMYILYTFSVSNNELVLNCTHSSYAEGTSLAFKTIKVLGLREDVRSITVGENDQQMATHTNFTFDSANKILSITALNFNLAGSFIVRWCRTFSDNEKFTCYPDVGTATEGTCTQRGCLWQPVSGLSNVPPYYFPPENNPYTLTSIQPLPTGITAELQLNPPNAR

Target: Sucrase-isomaltase, intestinal (Rattus norvegicus, UniProt P23739)
Assay: Inhibition of rat intestinal Sucrase using sucrose as substrate assessed as glucose release after 40 mins by glucose oxidase method

pIC50: 4.59
SMILES: C[C@H]1O[C@H](O[C@H]2[C@H](O)[C@@H](O)[C@@H](O[C@H]3[C@H](O)[C@@H](O)C(O)O[C@@H]3CO)O[C@@H]2CO)[C@H](O)[C@@H](O)[C@@H]1N[C@H]1C=C(CO)[C@@H](O)[C@H](O)[C@H]1O (stereo partly specified) [ACARBOSE]

pIC50: −log10 of the molar value.
